Test results as given in patent publication US7642270B2, “5-oxo-5,8-dihydro-pyrido-pyrimidine as inhibitors of c-fms kinase” (Janssen Pharmaceutica N.V., priority 2005, dated 2010).

The chains behind the UniProt entries cited, without tags or fusion partners. Residues count along the entry.
UniProt P07333, 20-972: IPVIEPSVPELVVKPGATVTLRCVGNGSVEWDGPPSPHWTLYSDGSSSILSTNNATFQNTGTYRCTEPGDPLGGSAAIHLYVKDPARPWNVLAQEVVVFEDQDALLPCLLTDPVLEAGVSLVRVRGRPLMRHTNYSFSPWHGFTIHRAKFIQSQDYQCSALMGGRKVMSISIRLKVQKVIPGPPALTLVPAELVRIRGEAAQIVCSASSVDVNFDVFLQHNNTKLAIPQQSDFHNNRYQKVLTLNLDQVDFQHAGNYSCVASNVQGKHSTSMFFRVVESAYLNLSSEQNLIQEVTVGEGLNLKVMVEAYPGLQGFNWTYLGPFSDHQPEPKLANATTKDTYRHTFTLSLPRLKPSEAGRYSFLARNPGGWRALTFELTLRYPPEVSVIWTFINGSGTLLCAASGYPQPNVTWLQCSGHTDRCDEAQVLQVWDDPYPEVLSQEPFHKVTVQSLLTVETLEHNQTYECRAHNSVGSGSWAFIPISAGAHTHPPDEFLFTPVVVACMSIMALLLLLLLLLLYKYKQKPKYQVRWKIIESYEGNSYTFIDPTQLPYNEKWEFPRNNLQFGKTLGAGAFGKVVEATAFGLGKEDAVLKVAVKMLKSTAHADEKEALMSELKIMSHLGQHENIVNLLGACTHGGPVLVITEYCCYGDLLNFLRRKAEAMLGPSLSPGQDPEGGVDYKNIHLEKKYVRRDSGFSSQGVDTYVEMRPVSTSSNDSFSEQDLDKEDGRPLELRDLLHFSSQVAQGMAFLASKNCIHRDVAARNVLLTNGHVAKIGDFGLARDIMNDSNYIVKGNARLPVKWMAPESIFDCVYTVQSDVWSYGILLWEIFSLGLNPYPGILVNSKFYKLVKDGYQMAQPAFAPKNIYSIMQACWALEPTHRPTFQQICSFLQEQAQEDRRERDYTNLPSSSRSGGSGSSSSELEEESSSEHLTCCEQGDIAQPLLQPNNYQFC

Biological target: c-fms (Homo sapiens, UniProt P07333)
Experiment: c-fms autophosphorylation, fluorescence polarization competition immunoassay
Type: biochemical
Conditions: 10 nM c-fms, 1 mM ATP, 5 mM MgCl2, 45 min room temperature; averages of three independent measurements

IC50: 7 nM
SMILES: CC1CN(c2ccc(Nc3ncc4c(=O)c(C(N)=O)cn(-c5ccc6c(c5)CCC6)c4n3)cc2)CC(C)N1 (stereo not shown) [Cpd 43, 2-[4-(3,5-Dimethyl-piperazin-1-yl)-phenylamino]-8-indan-5-yl-5-oxo-5,8-dihydro-pyrido[2,3-d]pyrimidine-6-carboxylic acid amide]
